Laboratory results as given in US9689040B2, “Selective inhibitors of tumor-initiating cells” (Children's Medical Center Corporation, priority 2011, dated 2017).

Experiments:
4T1-E and HCC-1143 cells = test: Colony assay and tumorigenicity assay after in vitro treatment; conditions: 18-hour treatment (12.5 nM), 2 weeks drug-free, orthotopic injection in Balb/c mice
[1] = test system: BPE, HMLER and BPLER cells; test: Cell cycle distribution (propidium iodide DNA staining); conditions: 24 hours
BPLER and HMLER cells = test: Mitochondrial membrane depolarization (DilC1(5) staining, flow cytometry); conditions: 12.5 nM, 18 hours

SMILES: CC(C)C[C@H](NC(=O)[C@H](Cc1ccccc1)NC(=O)c1cnccn1)B(O)O [bortezomib]
- colony formation and tumor initiation by viable cells persisting after treatment (4T1-E and HCC-1143 cells): neither formed colonies in vitro after 2 weeks, nor were able to initiate tumors in vivo
- cell cycle distribution [1]: marked accumulation of cells in G2/M phase
- mitochondrial membrane depolarization (BPLER and HMLER cells): induced mithocondrial membrane depolarization in BPLER but not HMLER
